The list shows a part of the results, in another mix than the full data. Some structures show a salt or complex split into parts, the way the source records it. Calls of active or inactive are those of the source. Cut-off read from the data, not from the text of the source: active = inhibition above about 22% (passing the limit was not always enough); inactive = the rest.

By UniProt entry, the sequences of proteins in these tests, tags left out.
UniProt P35372, whole entry, looked up: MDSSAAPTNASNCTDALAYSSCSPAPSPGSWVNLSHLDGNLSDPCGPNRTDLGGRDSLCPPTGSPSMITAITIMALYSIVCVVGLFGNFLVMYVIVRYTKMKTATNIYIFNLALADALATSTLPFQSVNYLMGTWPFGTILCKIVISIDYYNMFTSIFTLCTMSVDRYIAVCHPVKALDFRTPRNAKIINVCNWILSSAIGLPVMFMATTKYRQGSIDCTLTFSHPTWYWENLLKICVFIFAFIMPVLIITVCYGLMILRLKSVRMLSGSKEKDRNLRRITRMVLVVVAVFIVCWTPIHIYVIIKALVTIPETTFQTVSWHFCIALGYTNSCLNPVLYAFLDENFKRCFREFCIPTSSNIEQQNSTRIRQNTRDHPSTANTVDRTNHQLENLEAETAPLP
UniProt P41143, whole entry, looked up: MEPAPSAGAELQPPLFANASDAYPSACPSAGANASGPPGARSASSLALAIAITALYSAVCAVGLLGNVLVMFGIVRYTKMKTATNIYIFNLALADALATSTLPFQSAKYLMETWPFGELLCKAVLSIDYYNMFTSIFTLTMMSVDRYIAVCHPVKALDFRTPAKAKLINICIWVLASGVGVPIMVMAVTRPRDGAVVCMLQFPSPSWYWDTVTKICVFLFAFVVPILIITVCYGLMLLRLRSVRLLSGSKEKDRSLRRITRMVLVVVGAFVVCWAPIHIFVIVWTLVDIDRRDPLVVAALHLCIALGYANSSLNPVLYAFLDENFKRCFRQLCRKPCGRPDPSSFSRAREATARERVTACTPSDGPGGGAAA

For this test, the target named is Mu-type opioid receptor (Homo sapiens) + Delta-type opioid receptor (Homo sapiens) (UniProt P35372+P41143). Kind of test: inverse agonists of MOR-DOR heterodimerization, primary screen, cell-based, luminescence (AID 504357).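 Note: 0% = cells with DMSO and 100% = wells without cells with DMSO.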 The following applies: cell-based MOR-DOR heterodimer luminescence, inverse agonism; at 9.3 µM; active compounds read high.
For the molecule `CCN(CC)CCn1c(NCc2ccc(OC)cc2)nc2ccccc21`, the inhibition is inactive: 6.91%.
To `CCN(CC)CCCOC(=O)C(O)(c1ccccc1)c1ccccc1` belongs inactive: 10.1%.
With `Cc1ccc(S(=O)(=O)NCCC(=O)N2CCN(C/C=C/c3ccccc3)CC2)cc1`, the inhibition is inactive: 4.28%.
`Cc1cc(C)cc(OP(C)(N)=O)c1` (centres undefined): the inhibition was inactive: 14.2%.
The result for `COc1ccccc1OP(C)(=O)Nc1cc(Cl)ccc1C` (centres undefined) reads inactive: 7.38%.
Take `COc1ccc(OP(C)(=O)Nc2cccc(F)c2)cc1` (centres undefined): the inhibition is inactive: 3.14%.
To `COc1ccccc1OP(C)(=O)Nc1ccc(C)cc1` (centres undefined) belongs inactive: 4.53%; to `Cc1ccc(NP(C)(=O)Oc2ccccc2)c(C)c1` (centres undefined), inactive: 5.44%; to `CCOC(=O)c1ccc(NP(C)(=O)Oc2ccccc2)cc1` (centres undefined), inactive: -4.64%.
The result for `O=[N+]([O-])c1ccc2c(c1)C=Nc1ccccc1O2` reads inactive: -14.8%; that for `CC(C)(C)c1ccc(OP(C)(=O)Nc2ccc(SC(F)(F)F)cc2)cc1` (centres undefined), inactive: -21.8%.
For `Cc1cccc(C)c1OP(C)(N)=O` (centres undefined), the inhibition is inactive: 3.89%.
On to `Cc1n[nH]c(C)c1S(=O)(=O)N1CCC(C(=O)N2CCn3c2nc2ccccc23)CC1`, for which the inhibition was active: 37.7%.
For `COc1cc(C(=O)NCC2(N3CCOCC3)CCCCC2)ccc1OCC(C)C`, the inhibition is inactive: -1.52%.
With `O=[N+]([O-])c1cc([N+](=O)[O-])c(Nc2cccnc2)c([N+](=O)[O-])c1`, the inhibition was inactive: 4.22%.
On to `CP(=O)(Nc1ccccc1Br)Oc1ccccc1` (centres undefined), for which the inhibition is inactive: 16.2%.
For the molecule `C=CCC1(Nc2ccccc2)CC(C)N(C)CC1C` (centres undefined), the inhibition was inactive: 9.33%.
The result for `COc1ccccc1OP(C)(=O)Nc1ccccc1` (centres undefined) reads inactive: 10.2%.
To `CP(=S)(Nn1cnnc1)Oc1ccccc1` (centres undefined) belongs inactive: 10.5%.
To `CCCCOc1ccc(C(=O)NCC2(N3CCCCC3)CCCCC2)cc1OC` belongs inactive: 1.83%.
As for `O=C(C1CCN(S(=O)(=O)c2cccc3cccnc23)CC1)N1CCn2c1nc1ccccc12`, the inhibition was active: 87.4%.
With `CP(=O)(Nc1ccccn1)Oc1ccc(Cl)cc1` (centres undefined), the inhibition was inactive: 10.4%.
In the case of `CCOC(=O)c1ccc(NP(C)(=O)Oc2ccc(OC)cc2)cc1` (centres undefined), the inhibition is inactive: -12.9%.
To `CCOP(C)(=S)SCC(=O)NC(C)C(=O)O` (centres undefined) belongs inactive: -0.99%; to `CP(=O)(NC(=O)Nc1ccccc1)Oc1ccccc1` (centres undefined), inactive: -6.81%.
Regarding `CCc1ccc(OP(C)(=O)N2CCN(c3ccc([N+](=O)[O-])cc3)CC2)cc1` (centres undefined), the inhibition was inactive: 8.91%.
Consider `Cc1cc(C)cc(OP(C)(=O)Nc2ccc(SC(F)(F)F)cc2)c1` (centres undefined), for which the inhibition was inactive: -65.4%.
The result for `O=C(C1CCN(S(=O)(=O)c2cccc3nsnc23)CC1)N1CCn2c1nc1ccccc12` reads active: 84.5%.
The result for `Cc1cccc(C)c1OP(C)(=O)Nc1ccc(SC(F)(F)F)cc1` (centres undefined) reads inactive: 0.33%; that for `CP(=O)(Oc1ccccc1)OC(c1ccccc1)C(F)(F)F` (centres undefined), inactive: 7.22%; that for `Cc1nc2ccc3ccccc3c2s1.O=[N+]([O-])c1cc([N+](=O)[O-])c(O)c([N+](=O)[O-])c1`, inactive: 18.4%.
In the case of `O=[N+]([O-])c1cc([N+](=O)[O-])c(-c2cnn(-c3ccccc3)c2)c([N+](=O)[O-])c1`, the inhibition was inactive: -84.9%.
In the case of `O=[N+]([O-])c1cc([N+](=O)[O-])c(-n2nnc3ccccc32)c([N+](=O)[O-])c1`, the inhibition is inactive: 13.4%.
The result for `CCCOc1ccc(NP(C)(=O)Oc2ccc(Cl)cc2)cc1` (centres undefined) reads inactive: -13.1%.
The result for `CP(=O)(Nc1ccc(SC(F)(F)F)cc1)Oc1ccccc1` (centres undefined) reads inactive: -13.6%.
The result for `CN1CCCCC1COC(=O)C1(O)c2ccccc2CCc2ccccc21` (centres undefined) reads inactive: -3.94%; that for `COc1ccccc1OP(C)(=O)Nc1c(C)cccc1C` (centres undefined), inactive: 14.2%.
With `CC1=C2N=C(C=C3N=C(C(C)=C4[N-][C@@](C)([C@@H]5N=C1[C@](C)(CCC(=O)NC[C@@H](C)OP(=O)([O-])O[C@H]1[C@@H](O)[C@@H](n6cnc7cc(C)c(C)cc76)O[C@@H]1CO)[C@H]5CC(N)=O)[C@@](C)(CC(N)=O)[C@@H]4CCC(N)=O)[C@@](C)(CC(N)=O)[C@@H]3CCC(N)=O)C(C)(C)[C@@H]2CCC(N)=O.[C-]#N.[Co+3]`, the inhibition was inactive: 13.5%.
The result for `CN(C)C1(CNC(=O)c2ccc(S(C)(=O)=O)cc2)CCCCC1` reads inactive: -16.3%; that for `O=[N+]([O-])c1cc([N+](=O)[O-])c(Nc2nnnn2CCO)c([N+](=O)[O-])c1`, inactive: 18.4%; that for `CCOC(=O)C(CC)C1=NC(C)(C)Cc2ccccc21.O=[N+]([O-])c1cc([N+](=O)[O-])c(O)c([N+](=O)[O-])c1` (centres undefined), inactive: 5.52%.
For the molecule `CC1=NCCc2c1[nH]c1ccccc21.O=[N+]([O-])c1cc([N+](=O)[O-])c(O)c([N+](=O)[O-])c1`, the inhibition is inactive: 2.48%.
The result for `O=C(C1CCN(S(=O)(=O)c2cnc[nH]2)CC1)N1CCn2c1nc1ccccc12` reads active: 43.7%.
To `O=C(O)c1cccc(Nc2c([N+](=O)[O-])cc([N+](=O)[O-])cc2[N+](=O)[O-])c1` belongs inactive: 13.4%; to `O=P(Nc1nccs1)(c1ccccc1)c1nc2ccccc2s1` (centres undefined), active: 36.2%; to `Cc1ccc(C)c(NP(C)(=O)Oc2ccccc2)c1` (centres undefined), inactive: -3.51%.
The result for `Cc1cc(C)cc(OP(C)(=O)Nc2ccccn2)c1` (centres undefined) reads inactive: 12.9%.
Take `CP(=O)(Nc1cccc(Br)c1)Oc1ccccc1` (centres undefined): the inhibition was inactive: 11.9%.
As to `CCOC(=O)c1ccc(NP(C)(=O)Oc2cc(C)cc(C)c2)cc1` (centres undefined), the inhibition is inactive: -2.98%.
The result for `Cc1cc(C)cc(OP(C)(=O)Nc2ccc(C)cc2C)c1` (centres undefined) reads inactive: -17.1%; that for `COc1cc(C(=O)NCC2(N3CCOCC3)CCCCC2)cc(Cl)c1OC(C)C`, inactive: -19.6%; that for `COc1ccccc1OP(C)(=O)Nc1cccc(Br)c1` (centres undefined), inactive: -5.15%.
As to `COc1ccc2c(c1O)-c1c(O)c(OC)cc3c1[C@H](C2)[N+](C)(C)CC3.O=[N+]([O-])c1cc([N+](=O)[O-])c([O-])c([N+](=O)[O-])c1[O-]`, the inhibition was inactive: 3.82%.
The result for `O=C(OC1CN2CCC1CC2)c1ccc([N+](=O)[O-])cc1` (centres undefined) reads inactive: -20%.
As for `O=C(OCCN1CCN(CCOCc2ccccc2)CC1)C(O)(c1ccccc1)c1ccccc1`, the inhibition was inactive: 5.12%.
Turning to `CP(=O)(Nc1ccccc1F)Oc1ccccc1` (centres undefined), the inhibition is inactive: -4.52%.
For the molecule `CC(C)c1ccc(OP(C)(=O)Nc2ccc(SC(F)(F)F)cc2)cc1` (centres undefined), the inhibition was inactive: -24.4%.
To `CP(=O)(Nc1ccccc1)Oc1ccc(F)cc1` (centres undefined) belongs inactive: 3.21%.
To `CCCCCOc1ccc(NP(C)(=O)Oc2ccc(Cl)cc2Cl)cc1` (centres undefined) belongs inactive: -13.6%; to `O=[N+]([O-])c1cc([N+](=O)[O-])c(OC2CCCCC2O)c([N+](=O)[O-])c1` (centres undefined), inactive: 4.21%; to `Cc1c([N+](=O)[O-])cc([N+](=O)[O-])c(Br)c1[N+](=O)[O-]`, inactive: 12.6%.
To `CCN(CC)CCCOC(=O)C(O)(c1ccccc1)C1CCCCC1` (centres undefined) belongs inactive: 8.35%; to `CCOC(=O)c1ccc(NP(C)(=O)Oc2ccc(F)cc2)cc1` (centres undefined), inactive: 0.2%.
Turning to `COc1ccc(OP(C)(=O)Nc2ccc(SC(F)(F)F)cc2)cc1` (centres undefined), the inhibition is inactive: -18.4%.
To `Cc1c(C(c2ccc3c(c2)OCO3)c2c(C)n(C)n(-c3ccccc3)c2=O)c(=O)n(-c2ccccc2)n1C.O=[N+]([O-])c1cc([N+](=O)[O-])c(O)c([N+](=O)[O-])c1` belongs inactive: 6.86%; to `O=[N+]([O-])c1ccc(OP2(=O)COCCO2)cc1` (centres undefined), inactive: 8.49%.
For `O=[N+]([O-])c1cc([N+](=O)[O-])c(NCC2CCS(=O)(=O)C2)c([N+](=O)[O-])c1` (centres undefined), the inhibition was inactive: -21.1%.
For `Cc1cc(-c2cccc3ccccc23)c(C)cn1.O=[N+]([O-])c1cc([N+](=O)[O-])c(O)c([N+](=O)[O-])c1`, the inhibition is inactive: 21.2%.
The result for `CN(C)CCOC(=O)C(O)(c1ccccc1)C1CCCCC1` (centres undefined) reads inactive: 5.51%; that for `COc1ccc(NP(C)(=O)Oc2ccccc2OC)cc1` (centres undefined), inactive: 2.81%; that for `COc1ccc(OP(C)(=O)Nc2cccc(Br)c2)cc1` (centres undefined), inactive: 22.9%.
The result for `CN(C)C1(CNC(=O)c2ccc(Cl)c(S(N)(=O)=O)c2)CCCCC1` reads inactive: -315%.
To `Cc1ccccc1NP(C)(=O)Nc1ccccc1C` belongs inactive: 3.45%; to `CP(=O)(Nc1ccc2c(c1)OCCO2)Oc1ccccc1` (centres undefined), inactive: 2.39%.
In the case of `CCOP(C)(=S)SCC(=O)NC(C)(CC)C(=O)O` (centres undefined), the inhibition is inactive: 4.98%.
To `CP(=O)(Nc1ccc(SC(F)(F)F)cc1)Oc1ccc(F)cc1` (centres undefined) belongs inactive: -26.9%.
Take `CN(C)C(=O)c1c([N+](=O)[O-])cc([N+](=O)[O-])cc1[N+](=O)[O-]`: the inhibition was inactive: -52.3%.
For `CCCCN1CCC(C#N)(Nc2ccccc2)CC1`, the inhibition is inactive: 11.1%.
As for `COc1ccccc1OP(C)(=O)Nc1ccccc1Br` (centres undefined), the inhibition was inactive: 1.87%.
To `CC(C)(C)c1ccc(OP(C)(=O)O)cc1` belongs inactive: 0.79%.
On to `CP(=O)(Nc1ccc(Cl)cc1)Oc1ccc(F)cc1` (centres undefined), for which the inhibition is inactive: 7.2%.
The result for `COc1ccccc1OP(C)(=O)Nc1c(C)n(C)n(-c2ccccc2)c1=O` (centres undefined) reads inactive: 15.9%; that for `O=C(OCCCN1CCCC1)C(O)(c1ccccc1)C1CCCCC1` (centres undefined), inactive: 16.8%; that for `CP(=O)(Oc1ccccc1)N1CCOC1=O` (centres undefined), inactive: 13.5%.
To `CCc1ccc(OP(C)(=O)Nc2cccnc2)cc1` (centres undefined) belongs inactive: -0.67%; to `CCN(CC)CC(O)COC(=O)C(O)(c1ccccc1)C1CCCCC1` (centres undefined), inactive: 12.3%; to `COc1ccc(OP(C)(=O)Nc2ccc(Br)cc2)cc1` (centres undefined), inactive: 1.04%.
Turning to `CCOC(=O)c1ccc(NP(C)(=O)Oc2ccc(Cl)cc2)cc1` (centres undefined), the inhibition was inactive: 4.33%.
In the case of `CP(=O)(OC12CC3CC(CC(C3)C1)C2)OC12CC3CC(CC(C3)C1)C2`, the inhibition is inactive: -38.5%.
To `CCCCCCCCCCCCCCCC1C[N+](C)(C)CCOP(C)(=O)O1` (centres undefined) belongs inactive: 10.6%; to `CP(=O)(Nc1ccc(Cl)cc1Cl)Oc1ccccc1` (centres undefined), inactive: 2.89%.
The result for `CP(=O)(OCCOc1ccccc1)OCCOc1ccccc1` reads inactive: 21.8%; that for `COc1ccccc1OP(C)(=O)Nc1ccc(C)c(C)c1` (centres undefined), inactive: 8.11%; that for `COc1ccc(OP(C)(=O)Nc2ccccc2Br)cc1` (centres undefined), inactive: 7.22%.
To `O=C1C(O)=C([N+](=O)[O-])C(=O)C(O)=C1[N+](=O)[O-]` belongs inactive: 15.8%; to `Cc1cc(C)cc(OP(C)(=O)Nc2cccc(C(F)(F)F)c2)c1` (centres undefined), inactive: 2.23%.
On to `CP(=O)(Nc1ccccn1)Oc1ccccc1` (centres undefined), for which the inhibition is inactive: 4.28%.
To `COc1ccccc1OP(C)(=O)Nc1ccc(C)cc1C` (centres undefined) belongs inactive: 15%; to `CCc1ccc(OP(C)(=O)O)cc1`, inactive: 3.91%.
Take `Cc1c(NP(C)(=O)Oc2ccc(C(C)C)cc2)c(=O)n(-c2ccccc2)n1C` (centres undefined): the inhibition was inactive: 8.86%.
For `O=[N+]([O-])c1cc([N+](=O)[O-])c(Nc2ccccn2)c([N+](=O)[O-])c1`, the inhibition was inactive: -13.3%.
To `COc1ccc(OP(C)(=O)Nc2ccccn2)cc1` (centres undefined) belongs inactive: 2.93%; to `CN(C)CCOC(=O)C(O)(c1ccccc1)C1CCCC1` (centres undefined), inactive: 14.8%.
As for `COc1ccccc1OP(C)(=O)Nc1ccc(Br)cc1` (centres undefined), the inhibition was inactive: 13.7%.

As a reminder, the inhibition is the relative decrease from the control value, in per cent.

The record behind these values is PubChem BioAssay AID504357 (The Scripps Research Institute Molecular Screening Center, 2011).
